In patent US20220056149A1, “SINGLE-DOMAIN ANTIBODY-CYTOSINE DEAMINASE FUSION PROTEINS” (LUMOSA THERAPEUTICS, CO., LTD., priority 2018, published 2022):
Positions count from the first letter of the chain named.

Chains of the proteins cited; added tags and fusions are not shown. A line that says so, or that is headed by a name, gives the form on record, which may keep a tag or linker.
UniProt P35968, with tags, fused parts or gaps limits assumed: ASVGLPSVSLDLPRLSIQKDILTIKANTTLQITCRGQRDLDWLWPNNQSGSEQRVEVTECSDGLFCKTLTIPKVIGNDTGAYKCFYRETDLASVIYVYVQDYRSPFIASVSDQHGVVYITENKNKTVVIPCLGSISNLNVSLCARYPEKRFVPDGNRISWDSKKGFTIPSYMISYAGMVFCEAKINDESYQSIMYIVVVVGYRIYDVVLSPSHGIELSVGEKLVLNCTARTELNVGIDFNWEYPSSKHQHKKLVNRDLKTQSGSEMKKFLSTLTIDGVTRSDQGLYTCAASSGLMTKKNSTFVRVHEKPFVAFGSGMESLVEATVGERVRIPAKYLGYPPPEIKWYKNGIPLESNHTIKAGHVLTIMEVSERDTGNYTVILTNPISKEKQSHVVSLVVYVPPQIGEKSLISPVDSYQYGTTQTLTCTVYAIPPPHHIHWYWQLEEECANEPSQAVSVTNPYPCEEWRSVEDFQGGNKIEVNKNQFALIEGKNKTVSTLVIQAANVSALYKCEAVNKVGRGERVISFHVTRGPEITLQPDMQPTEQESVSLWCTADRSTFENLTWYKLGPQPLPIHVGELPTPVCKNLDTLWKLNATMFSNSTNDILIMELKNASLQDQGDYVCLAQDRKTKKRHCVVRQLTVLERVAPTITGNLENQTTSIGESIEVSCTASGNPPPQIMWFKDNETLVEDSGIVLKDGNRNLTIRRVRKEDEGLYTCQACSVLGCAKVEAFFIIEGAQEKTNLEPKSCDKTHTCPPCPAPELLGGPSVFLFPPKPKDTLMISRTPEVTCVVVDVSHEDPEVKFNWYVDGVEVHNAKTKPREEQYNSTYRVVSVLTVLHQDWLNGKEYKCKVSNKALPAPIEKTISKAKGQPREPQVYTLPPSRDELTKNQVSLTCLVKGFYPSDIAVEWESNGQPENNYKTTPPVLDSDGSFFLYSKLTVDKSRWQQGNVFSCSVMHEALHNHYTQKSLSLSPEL

How the values were obtained:
Human VEGFR2-Fc = biological target: T1, Human VEGFR2-Fc (Homo sapiens, UniProt P35968); assay: VEGFR2 binding ELISA
T1 construct: Fc; purchased Sino Biological
Description: The binding between human VEGFR2 and the sdAb-CD fusion proteins disclosed herein was tested by ELISA. For the VEGFR2 binding assay, the coating antibody Human VEGFR2-Fc (Sino Biological) was diluted to 1 μg/ml in coating buffer (100 mM NaHCO3+32 mM Na2HCO3). Blocking was performed by incubating with blocking buffer (0.25% BSA, 0.05% Tween-20, 0.05% NaN3, 1 mM EDTA) for 2 hours. The tested fusion protein samples were prepared in blocking buffer and added to wells for binding. Rabbit anti-His-HRP (abcam) was diluted 5000-fold in a buffer comprising 0.25% BSA and 0.05% Tween 20 for detection.

[1] = Stability study (turbidity/appearance) of sdAb-CD produced from different E. coli strains; type: physicochemical; set-up: key to Turbidity: +++++: The number of “+” indicates the turbidity level; +++: The number of “+” indicates the turbidity level; ++: The number of “+” indicates the turbidity level; The number of “+” indicates the turbidity level; “+/−” means that very minor aggregation was observed; details: for Turbidity: 3 mg/mL; for precipitations (appearance of purified protein): overall statement on Table 1
Description: The 3VGR19-CD-H fusion proteins expressed from SHuffle® T7 Express and T7 Express Competent E. coli were purified and dialyzed into the following four buffers at 3 mg/mL: (1) PBS (2) 1% glycerol in PBS (3) 5% glycerol in PBS (4) 3% mannitol in PBS. The appearances of the purified protein in each buffer were observed after incubation at 37° C. for 3 hours, 37° C. for 8 hours and 4° C. for 1 week, and summarized in Table 1. The number of “+” indicates the turbidity level. “+/−” means that very minor aggregation was observed.

human CEACAM5-Fc = biological target: T2, human CEACAM5-Fc (Homo sapiens, UniProt P06731); assay: CEA binding ELISA
T2 construct: Fc; purchased novoprotein
Description: (§1) For the HER2, HER3 and CEA binding assays, the coating antibody for each assay was human ErbB2/Her2-Fc (Acro biosystem), human ErbB3/Her3-Fc (Acro biosystem), and human CEACAM5-Fc (novoprotein), respectively.

human ErbB3/Her3-Fc = biological target: T3, human ErbB3/Her3-Fc (Homo sapiens, UniProt P21860); assay: HER3 binding ELISA
T3 construct: Fc; purchased Acro biosystem
Description: as §1

hEGFR-Fc = biological target: T4, hEGFR-Fc (Homo sapiens, UniProt P00533); assay: EGFR binding ELISA
T4 construct: Fc; purchased Sino Biological
Description: For the EGFR binding assay, ELISA plates were coated with hEGFR-Fc (Sino Biological) with concentration 1 μg/mL in coating buffer. Blocking was performed by incubating with blocking buffer (0.25% BSA, 0.05% Tween-20, 0.05% NaN3, 1 mM EDTA) for 2 hours. After blocking, the samples were serial diluted in blocking buffer and added to wells for binding 1 hour. Finally, the secondary antibodies (Rabbit anti-HIS-HRP) were diluted in buffer comprising 0.25% BSA and 0.05% Tween 20 for detection.

human ErbB2/Her2-Fc = biological target: T5, human ErbB2/Her2-Fc (Homo sapiens, UniProt P04626); assay: HER2 binding ELISA
T5 construct: Fc; purchased Acro biosystem
Description: as §1

B1: 3VGR19-CD-H: anti-VEGFR2 sdAb 3VGR19 fused via (GGGGS)3 linker to yeast cytosine deaminase, with HIS-tag (protein)
chain: QVQLQESGGGSVQAGGSLRLSCVASGYSVSKNSMGWFRQAPGKEREGVAGINEGGTATYYANSVKGRFTISQDNAKNTVYLQMNTLKPEDTAIYYCAAGSPDPPPLIESVVKYWGQGTQVTVSSGGGGSGGGGSGGGGSVTGGMASKWDQKGMDIAYEEAALGYKEGGVPIGGCLINNKDGSVLGRGHNMRFQKGSATLHGEISTLENCGRLEGKVYKDTTLYTTLSPCDMCTGAIIMYGIPRCVVGENVNFKSKGEKYLQTRGHEVVVVDDERCKKIMKQFIDERPQDWFEDIGEHHHHHH
binding to VEGFR2 (ELISA) (Human VEGFR2-Fc): bind to VEGFR2
Turbidity ([1]; SHuffle T7 Express, buffer 1 (PBS), 4° C., 1 week): +/−
Turbidity ([1]; SHuffle T7 Express, buffer 2 (1% glycerol in PBS), 4° C., 1 week): +/−
Turbidity ([1]; SHuffle T7 Express, buffer 3 (5% glycerol in PBS), 4° C., 1 week): +/−
Turbidity ([1]; SHuffle T7 Express, buffer 4 (3% mannitol in PBS), 4° C., 1 week): +/−
Turbidity ([1]; T7 Express, buffer 1 (PBS), 4° C., 1 week): +++
Turbidity ([1]; T7 Express, buffer 1 (PBS), 37° C., 3 hr): +++++
Turbidity ([1]; T7 Express, buffer 1 (PBS), 37° C., 8 hr): +++++
Turbidity ([1]; T7 Express, buffer 2 (1% glycerol in PBS), 4° C., 1 week): +++
Turbidity ([1]; T7 Express, buffer 2 (1% glycerol in PBS), 37° C., 3 hr): +++++
Turbidity ([1]; T7 Express, buffer 2 (1% glycerol in PBS), 37° C., 8 hr): +++++
Turbidity ([1]; T7 Express, buffer 3 (5% glycerol in PBS), 4° C., 1 week): +
Turbidity ([1]; T7 Express, buffer 3 (5% glycerol in PBS), 37° C., 3 hr): +++++
Turbidity ([1]; T7 Express, buffer 3 (5% glycerol in PBS), 37° C., 8 hr): +++++
Turbidity ([1]; T7 Express, buffer 4 (3% mannitol in PBS), 4° C., 1 week): ++
Turbidity ([1]; T7 Express, buffer 4 (3% mannitol in PBS), 37° C., 3 hr): +++++
Turbidity ([1]; T7 Express, buffer 4 (3% mannitol in PBS), 37° C., 8 hr): +++++
precipitations (appearance of purified protein) ([1]; expressed from SHuffle T7 Express cells): but not in SHuffle® T7 Express cells
precipitations (appearance of purified protein) ([1]; expressed from T7 Express cells): a large quantity of precipitations was observed

B2: AntiCEA-CDoem3-H: anti-CEA sdAb (ABS29544.1) fused to CDoem3, with HIS-tag (protein)
chain: EVQLVESGGGFVQAGESLTLSCTSSTLTFTPYRMAWYRQAPGKQRDLVADISSGDGRTTNYADFAKGRFTISRDNIKNTVFLRMTNLKPEDTAVYYCNTFVSFVGIARSWGQGTQVTVSSGGGGSGGGGSGGGGSVTGGMASKWDQKGMDIAYEEALLGYKEGGVPIGGCLINNKDGSVLGRGHNMRFQKGSATLHGEISTLENCGRLEGKVYKDTTLYTTLSPCDMCTGAIIMYGIPRCVIGENVNFKSKGEKYLQTRGHEVVVVDDERCKKLMKQFIDERPQDWFEDIGEHHHHHH
binding to CEACAM5 (ELISA) (human CEACAM5-Fc): bind to CEACAM5

B3: BCD090-M2-CDoem3-H: anti-HER3 sdAb BCD090-M2 fused to CDoem3, with HIS-tag (protein)
chain: MQVQLVQSGGGLVQAGGSLRLSCAFSGRTFSMYTMGWFRQAPGKEREFVAANRGRGLSPDIADSVNGRFTISRDNAKNTLYLQMDSLKPEDTAVYYCAADLQYGSSWPQRSSAEYDYWGQGTTVTVSSGGGGSGGGGSGGGGSVTGGMASKWDQKGMDIAYEEALLGYKEGGVPIGGCLINNKDGSVLGRGHNMRFQKGSATLHGEISTLENCGRLEGKVYKDTTLYTTLSPCDMCTGAIIMYGIPRCVIGENVNFKSKGEKYLQTRGHEVVVVDDERCKKLMKQFIDERPQDWFEDIGEGSSHHHHHH
binding to HER3 (ELISA) (human ErbB3/Her3-Fc): binds to HER3

B4: 4VGR17-CD-H: anti-VEGFR2 sdAb 4VGR17 fused to yeast cytosine deaminase, with HIS-tag (protein)
chain: B1 chain with E53Y, S109G
binding to VEGFR2 (ELISA) (Human VEGFR2-Fc): bind to VEGFR2

B5: 4VGR38-CD-H: anti-VEGFR2 sdAb 4VGR38 fused to yeast cytosine deaminase, with HIS-tag (protein)
chain: QVQLQESGGGSVQAGGSLTLSCEVSGYSVNSNSMGWFRQAPGKEREGVAGINEGGVSTYYANFVQGRFTISQDNAKNMVYLQMNSLKPEDTAIYYCAAGAPDPPPLIESIVKYWGQGTQVTVSSGGGGSGGGGSGGGGSVTGGMASKWDQKGMDIAYEEAALGYKEGGVPIGGCLINNKDGSVLGRGHNMRFQKGSATLHGEISTLENCGRLEGKVYKDTTLYTTLSPCDMCTGAIIMYGIPRCVVGENVNFKSKGEKYLQTRGHEVVVVDDERCKKIMKQFIDERPQDWFEDIGEHHHHHH
binding to VEGFR2 (ELISA) (Human VEGFR2-Fc): bind to VEGFR2

B6: VHH122-CD-H: anti-EGFR sdAb VHH122 fused to yeast cytosine deaminase, with HIS-tag (protein)
chain: EVQLQESGGGLVQAGDSLRLSCLVSGRSFNSYTMGWFRQAPGKEREFVAAILWSGPTTYYADSVKGRFTISRDNAKNTVYLQMNSLKPEDTAVYYCAAALGVLVLAPGNVYSYWGQGTQVTVSSGGGGSGGGGSGGGGSVTGGMASKWDQKGMDIAYEEAALGYKEGGVPIGGCLINNKDGSVLGRGHNMRFQKGSATLHGEISTLENCGRLEGKVYKDTTLYTTLSPCDMCTGAIIMYGIPRCVVGENVNFKSKGEKYLQTRGHEVVVVDDERCKKIMKQFIDERPQDWFEDIGEHHHHHH
binding to EGFR (ELISA) (hEGFR-Fc): bind to EGFR

B7: 47D5-CDoem3-H: anti-HER2 sdAb 47D5 fused to CDoem3, with HIS-tag (protein)
chain: KVQLVESGGGLVQPGGSLRLSCAASGSIFGFNDMAWYRQAPGKQRELVALISRVGVTSSADSVKGRFTISRVNAKDTVYLQMNSLKPEDTAVYYCYMDQRLDGSTLAYWGQGTQVTVSSGGGGSGGGGSGGGGSVTGGMASKWDQKGMDIAYEEALLGYKEGGVPIGGCLINNKDGSVLGRGHNMRFQKGSATLHGEISTLENCGRLEGKVYKDTTLYTTLSPCDMCTGAIIMYGIPRCVIGENVNFKSKGEKYLQTRGHEVVVVDDERCKKLMKQFIDERPQDWFEDIGEHHHHHH
binding to HER2 (ELISA) (human ErbB2/Her2-Fc): bind to HER2

B8: 2D3-CDoem3-H: anti-HER2 sdAb 2D3 fused to CDoem3, with HIS-tag (protein)
chain: EVQLVESGGSLVQPGGSLRLSCAASGFTFDDYAMSWVRQVPGKGLEWVSSINWSGTHTDYADSVKGRFTISRNNANNTLYLQMNSLKSEDTAVYYCAKNWRDAGTTWFEKSGSAGQGTQVTVSSGGGGSGGGGSGGGGSVTGGMASKWDQKGMDIAYEEALLGYKEGGVPIGGCLINNKDGSVLGRGHNMRFQKGSATLHGEISTLENCGRLEGKVYKDTTLYTTLSPCDMCTGAIIMYGIPRCVIGENVNFKSKGEKYLQTRGHEVVVVDDERCKKLMKQFIDERPQDWFEDIGEHHHHHH
binding to HER2 (ELISA) (human ErbB2/Her2-Fc): bind to HER2

B9: NbCEA5-CDoem3-H: anti-CEA sdAb NbCEA5 fused to CDoem3, with HIS-tag (protein)
chain: QVQLVESGGGSVQAGGSLRLSCAASGDTYGSYWMGWFRQAPGKEREGVAAINRGGGYTVYADSVKGRFTISRDTAKNTVYLQMNSLRPDDTADYYCAASGVLGGLHEDWFNYWGQGTQVTVSSGGGGSGGGGSGGGGSVTGGMASKWDQKGMDIAYEEALLGYKEGGVPIGGCLINNKDGSVLGRGHNMRFQKGSATLHGEISTLENCGRLEGKVYKDTTLYTTLSPCDMCTGAIIMYGIPRCVIGENVNFKSKGEKYLQTRGHEVVVVDDERCKKLMKQFIDERPQDWFEDIGEHHHHHH
binding to CEACAM5 (ELISA) (human CEACAM5-Fc): bind to CEACAM5
